# Measured values as given in patent US9415040B2 (priority 2008, dated 2016).
# By UniProt entry, the sequences of proteins in these tests, tags left out. Where a name states a change or a piece, a line headed by the entry shows the natural chain unless it says otherwise.
# UniProt P0C5S6: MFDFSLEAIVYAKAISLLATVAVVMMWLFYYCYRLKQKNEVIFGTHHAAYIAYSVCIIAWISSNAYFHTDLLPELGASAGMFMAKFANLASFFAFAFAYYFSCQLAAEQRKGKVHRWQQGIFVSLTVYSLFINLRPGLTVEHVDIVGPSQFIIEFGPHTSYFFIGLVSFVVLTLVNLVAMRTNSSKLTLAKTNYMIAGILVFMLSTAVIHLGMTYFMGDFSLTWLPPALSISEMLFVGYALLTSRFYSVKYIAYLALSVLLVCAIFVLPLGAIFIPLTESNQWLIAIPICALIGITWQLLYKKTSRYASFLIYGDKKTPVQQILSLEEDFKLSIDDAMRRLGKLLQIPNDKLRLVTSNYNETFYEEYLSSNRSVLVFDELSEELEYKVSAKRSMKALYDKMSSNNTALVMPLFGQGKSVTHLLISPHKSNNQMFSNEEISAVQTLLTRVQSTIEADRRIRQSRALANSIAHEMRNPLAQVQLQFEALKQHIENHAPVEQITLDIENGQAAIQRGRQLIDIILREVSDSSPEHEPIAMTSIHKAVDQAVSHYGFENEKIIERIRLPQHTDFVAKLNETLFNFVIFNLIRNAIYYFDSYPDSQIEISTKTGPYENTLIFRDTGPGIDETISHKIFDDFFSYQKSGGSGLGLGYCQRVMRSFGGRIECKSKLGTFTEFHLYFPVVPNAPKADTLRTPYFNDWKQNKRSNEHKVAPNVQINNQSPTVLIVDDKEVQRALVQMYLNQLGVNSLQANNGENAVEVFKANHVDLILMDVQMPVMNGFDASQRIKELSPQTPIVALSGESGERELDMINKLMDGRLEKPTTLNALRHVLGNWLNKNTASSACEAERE
# Molecular target: LuxN (Vibrio harveyi, UniProt P0C5S6)
smiles,measurement,value
CC(=O)N1CCc2cc(S(=O)(=O)NC(CC(C)C)C(=O)NCc3ccc(Cl)cc3)ccc21 (stereo not shown) [Antagonist C450-0730],IC50,2700 nM
